Test system: lipase
Experiment: Lipase/lipolysis assay (EnzChek Lipase Substrate, quenched BODIPY-fatty acid conjugate) on stored human milk; as to Lipase (RFU): test concentration or dose not given here
Settings: for Lipase (RFU): stored 1 week at −20° C.; for Hit in lipase inhibition screen (in words): approximately 2700 compound screen, human milk stored 1 week at −20° C., hit = RFU <400
[1] = compound added to fresh human milk, thawed at room temperature, RFU <400 considered a hit
[2] = Food-Sourced Compound Library compound added to fresh human milk, thawed at room temperature, RFU <400 considered a hit
[3] = Food Additive Library compound added to fresh human milk, thawed at room temperature, RFU of <400 considered a hit
[4] = Biolog PM2a compound added to fresh human milk, RFU <400 = hit
[5] = Biolog PM5 compound added to fresh human milk, RFU <400 = hit
[6] = Biolog PM1 compound added to fresh human milk, RFU <400 = hit
[7] = Biolog PM4 compound added to fresh human milk, RFU <400 = hit

Row | SMILES | Lipase (RFU) [1] [RFU] | Lipase (RFU) [3] [RFU] | also measured
1 | CC1CCC(C(C)C)C(O)C1 (single isomer, unassigned; (-)) [(−)-Menthol] | 1023.319 | – | –
2 | CC1(C)S[C@@H]2[C@H](NC(=O)[C@H](N)c3ccccc3)C(=O)N2[C@H]1C(=O)O [Ampicillin (trihydrate)] | – | – | Lipase (RFU) [2]: 846.9314 RFU
3 | C/C=C/c1ccc(OC)cc1 [Trans-Anethole] | 979.1165 | 967.4121 | –
4 | O=C(O)CP(=O)(O)O [Phosphonoacetic acid] | 1174.468 | – | –
5 | O=C1O[C@H](CO)[C@@H](O)[C@H]1O [D-Ribono-1,4-Lactone] | – | – | Lipase (RFU) [4]: 447.2339 RFU
6 | CCCCCCCCCC(O)CC(=O)O (centres unmarked) [3-Hydroxydodecanoic acid] | 1000.694 | – | –
7 | O=C(O)[C@H](O)[C@@H](O)C(=O)O [L-Tartaric Acid] | – | 840.2751 | Lipase (RFU) [4]: 877.178 RFU
8 | CC(=O)c1ccc(C)cc1C [2′,4′-Dimethylacetophenone] | – | 702.504 | –
9 | CC(CN)C(=O)O (centres unmarked) [3-Amino-2-methylpropanoic acid] | 1055.242 | – | –
10 | NC1(C(=O)O)CC1 [1-Aminocyclopropane-1-carboxylic acid] | – | – | Lipase (RFU) [2]: 796.6717 RFU
11 | C[C@H](CCC(=O)NCC(=O)O)[C@H]1CC[C@H]2[C@@H]3[C@H](O)C[C@@H]4C[C@H](O)CC[C@]4(C)[C@H]3C[C@H](O)[C@]12C [Glycocholic acid] | – | 868.0625 | –
12 | O=C1OCc2ccccc21 [Phthalide] | – | 1150.138 | –
13 | COC(=O)C1=CO[C@@H](O[C@@H]2O[C@H](CO)[C@@H](O)[C@H](O)[C@H]2O)[C@@H]2[C@@H](C)[C@@H](O)C[C@H]12 [Loganin] | 996.2712 | – | –
14 | Cc1cccc(CC(=O)O)c1 [m-Tolylacetic acid] | – | – | Lipase (RFU) [2]: 989.3046 RFU
15 | Cn1c(N)nc2c(ncn2[C@@H]2O[C@H](CO)[C@@H](O)[C@H]2O)c1=O [Compound 1-Methylguanosine, 1-Methylguanosine] | – | – | Lipase (RFU) [2]: 1196.894 RFU
16 | OC[C@H]1O[C@@H](n2cnc3c(O)ncnc32)C[C@@H]1O [2′-Deoxy Inosine] | – | – | Lipase (RFU) [5]: 263.369 RFU; Hit in lipase inhibition screen (in words): significantly inhibited lipase activity
17 | CC(C)=CCc1c(-c2ccc(O)cc2O)oc2c(CC=C(C)C)c(O)cc(O)c2c1=O [Mulberrin] | – | – | Lipase (RFU) [2]: 1221.946 RFU
18 | NCCc1ccc(O)cc1 [Tyramine] | – | 955.4062 | Lipase (RFU) [6]: 517.4752 RFU; Lipase (RFU) [2]: 1128.759 RFU
19 | COc1cc(-c2cc(=O)c3c(O)cc(O)cc3o2)ccc1O [Chrysoeriol] | 949.6425 | – | –
20 | O=C(O)CCc1ccc(O)cc1 [Desaminotyrosine] | 1140.163 | – | –
21 | COc1c2ccoc2c(OC[C@H]2OC2(C)C)c2oc(=O)ccc12 [Byakangelicol] | 925.1398 | – | –
22 | CC(C)CC(=O)C(=O)O [4-Methyl-2-oxopentanoic acid] | – | 713.9034 | –

Row | SMILES | Lipase (RFU) [1] [RFU] | Lipase (RFU) [3] [RFU] | also measured
23 | CCCCCCCCCCCCCCCCCCCC(=O)O [Arachidic acid] | – | – | Lipase (RFU) [2]: 966.5559 RFU
24 | CCCCCCCCOC(C)=O [Octyl acetate] | – | 1146.859 | –
25 | COc1cccc(C(=O)O)c1 [3-Methoxybenzoic acid] | – | 1182.162 | –
26 | CC1(C)CC[C@]2(C(=O)O)CC[C@]3(C)C(=CC[C@@H]4[C@@]5(C)C[C@@H](O)[C@H](O)[C@@](C)(CO)[C@@H]5CC[C@]43C)[C@@H]2C1 [Arjunolic acid] | – | – | Lipase (RFU) [2]: 761.4994 RFU
27 | O=C(O)c1ccco1 [2-Furoic acid] | 1203.786 | – | –
28 | CC(C)(CO)[C@@H](O)C(=O)NCCCO [D-Panthenol] | – | 659.466 | –
29 | COC(=O)C(C)=O [Methyl Pyruvate] | – | – | Lipase (RFU) [6]: 205.0162 RFU; Hit in lipase inhibition screen (in words): significantly inhibited lipase activity
30 | CC(=O)Nc1ccc(O[C@@H]2O[C@H](C(=O)O)[C@@H](O)[C@H](O)[C@H]2O)cc1 [Acetaminophen glucuronide] | – | – | Lipase (RFU) [2]: 719.1638 RFU
31 | CC1(C)S[C@@H]2[C@H](NC(=O)[C@H](N)c3ccc(O)cc3)C(=O)N2[C@H]1C(=O)O [Amoxicillin] | 971.1374 | – | –
32 | O=C(O)CC(=O)C(=O)O [Oxaloacetic Acid] | – | – | Lipase (RFU) [5]: 810.9101 RFU
33 | CC(C)(CC(=O)O)C(=O)O [2,2-Dimethylsuccinic acid] | – | – | Lipase (RFU) [2]: 994.432 RFU
34 | Nc1nc2c(ncn2[C@@H]2O[C@H](COP(=O)(O)O)[C@@H](O)[C@H]2O)c(=O)[nH]1 [Guanosine-5′-monophosphate] | – | – | Lipase (RFU) [7]: 634.7352 RFU
35 | C=CCC(C)C(=O)O (centres unmarked) [2-Methyl-4-pentenoic Acid] | – | 842.8124 | –
36 | CCCCCCCCCCCCCCCCO [Compound 1-Hexadecanol, 1-Hexadecanol] | – | 1083.165 | –
37 | CC(C)=CCCC(C)CCO (centres unmarked) [Citronellol] | 760.9768 | 1084.092 | –
38 | CCCCCCCCCCCCCC(=O)O [Myristic acid] | – | 851.218 | –
39 | NCCc1ccccc1 [Phenylethyl-amine] | – | – | Lipase (RFU) [6]: 904.3943 RFU
40 | NC(=O)C[C@H](N)C(=O)O [L-Asparagine] | – | 743.0703 | Lipase (RFU) [6]: 940.1972 RFU; Lipase (RFU) [5]: 1092.375 RFU; Lipase (RFU) [2]: 749.3036 RFU
41 | Cc1cc(O)cc(C)c1O [2,6-Dimethylhydroquinone] | 791.4555 | – | –
42 | Cn1c(=O)c2[nH]cnc2n(C)c1=O [Theophylline] | – | – | Lipase (RFU) [2]: 818.706 RFU
43 | CC1=C(O)C(=O)C(C)O1 (centres unmarked) [Furaneol] | 1033.999 | 916.5799 | –
44 | CCCC(C)C(=O)O (centres unmarked) [2-Methylvaleric acid] | 1241.438 | 913.3585 | –

Row | SMILES | Lipase (RFU) [1] [RFU] | Lipase (RFU) [3] [RFU] | also measured
45 | C[C@@H]1CC[C@@]2(NC1)O[C@H]1C[C@H]3[C@@H]4CC=C5C[C@@H](O[C@@H]6O[C@H](CO)[C@@H](O[C@@H]7O[C@@H](C)[C@H](O)[C@@H](O)[C@H]7O)[C@H](O)[C@H]6O[C@@H]6O[C@@H](C)[C@H](O)[C@@H](O)[C@H]6O)CC[C@]5(C)[C@H]4CC[C@]3(C)[C@H]1[C@@H]2C [Solamargine] | 912.2193 | – | –
46 | O=C(O)CCCCCCC(=O)O [Suberic acid] | 904.1508 | – | –
47 | CCCCCCCC/C=C\CCCCCCCC(=O)O [Oleic acid] | – | 1171.133 | Lipase (RFU) [2]: 831.6362 RFU
48 | CCCCCCCC=O [Octanal] | – | 920.8484 | –
49 | CC(O)CC(=O)O (centres unmarked) [3-Hydroxybutyric acid] | – | – | Lipase (RFU) [2]: 1129.967 RFU
50 | C[S+]([O-])CC[C@H](N)C(=O)O (stereo partly drawn) [L- Methionine Sulfoxide] | – | – | Lipase (RFU) [7]: 820.2856 RFU
51 | CC(C)(CC(=O)O)CC(=O)O [3,3-Dimethylglutaric acid] | 885.3754 | – | –
52 | O=C(O)CCCCCCCCCCCCCCC(=O)O [Hexadecanedioic acid] | – | – | Lipase (RFU) [2]: 818.4396 RFU
53 | CC(=O)CC(=O)CCC(=O)O [4,6-Dioxoheptanoic acid] | 821.8451 | – | –
54 | O=C(OCC1=C[C@@H](O)[C@@H]2C=CO[C@@H](O[C@@H]3O[C@H](CO)[C@@H](O)[C@H](O)[C@H]3O)[C@H]12)c1ccc(O)cc1 [Agnuside] | 1066.467 | – | –
55 | O=c1c(O)c(-c2ccc(O)cc2)oc2cc(O)cc(O)c12 [Kaempferol] | 845.5437 | – | –
56 | O=C(O)CCc1ccccc1 [Hydrocinnamic acid] | 949.1673 | 919.1729 | –
57 | Cc1cccs1 [Compound 2-Methylthiophene, 2-Methylthiophene] | 999.7036 | – | –
58 | Nc1ncnc2c1ncn2[C@@H]1O[C@H](CO)[C@@H](O)[C@H]1OP(=O)(O)O [Adenosine-2′-monophosphate] | 642.3973 | – | Lipase (RFU) [7]: 835.9772 RFU
59 | O=C(O)[C@@H](O)[C@H](O)[C@H](O)[C@@H](O)C(=O)O [Mucic Acid] | – | – | Lipase (RFU) [6]: 636.2061 RFU
60 | Cc1ncc(COP(=O)(O)O)c(C=O)c1O [Pyridoxal phosphate] | – | – | Lipase (RFU) [2]: 900.7177 RFU
61 | O=C([NH2+][O-])c1cccnc1 [Nicotinamide N-oxide] | 920.4201 | – | –
62 | NC(=O)[C@@H](O)[C@@H](O)[C@H](O)[C@@H](O)C=O [Glucuronamide] | – | – | Lipase (RFU) [6]: 916.3562 RFU
63 | C=C(C)[C@@H]1CC[C@]2(C)CC[C@]3(C)[C@H](CC[C@@H]4[C@@]5(C)CC[C@H](O)C(C)(C)[C@@H]5CC[C@]43C)[C@@H]12 [Lupeol] | 752.6333 | – | –
64 | O=C(O)Cc1ccc(O)cc1 [p-Hydroxy Phenyl Acetic Acid] | – | – | Lipase (RFU) [6]: 1082.882 RFU
65 | O=C(O)Cc1ccccc1O [2-Hydroxyphenylacetic acid] | 818.0796 | – | –

From patent publication US12507703B2, “Methods, devices and compositions for preserving human milk” (The Trustees of Princeton University, priority 2023, dated 2025)
